These are literature values, as cited in patent US20140105970A1, “ADJUVANT AND ANTIGEN PARTICLE FORMULATION” (published 2014).

For the data set the following is noted: colour change from colorless to coloured form.

This is a selection: effects in other tests are not listed, and their absence says nothing.

On to `O=[N+]([O-])c1cc([N+](=O)[O-])cc([N+](=O)[O-])c1`, for which the “pH Change (pH range of colour change)” value is 12.0-14.0 pH.

For the compound `Cc1c([N+](=O)[O-])cc([N+](=O)[O-])cc1[N+](=O)[O-]`, the “pH Change (pH range of colour change)” value is 11.5-13.0 pH.
